Assay results from patent publication US20260193238A1, “PHARMACEUTICAL COMPOUNDS AS PARP7 AND/OR PARP1 INHIBITORS” (Duke Street Bio Limited, priority 2022, published 2026).
Like-named read-outs stand apart in the source and are kept apart here.

Sequences of proteins named here, by UniProt entry; tags and fusion partners are left off. Residues count along the entry.
UniProt P09874, whole entry: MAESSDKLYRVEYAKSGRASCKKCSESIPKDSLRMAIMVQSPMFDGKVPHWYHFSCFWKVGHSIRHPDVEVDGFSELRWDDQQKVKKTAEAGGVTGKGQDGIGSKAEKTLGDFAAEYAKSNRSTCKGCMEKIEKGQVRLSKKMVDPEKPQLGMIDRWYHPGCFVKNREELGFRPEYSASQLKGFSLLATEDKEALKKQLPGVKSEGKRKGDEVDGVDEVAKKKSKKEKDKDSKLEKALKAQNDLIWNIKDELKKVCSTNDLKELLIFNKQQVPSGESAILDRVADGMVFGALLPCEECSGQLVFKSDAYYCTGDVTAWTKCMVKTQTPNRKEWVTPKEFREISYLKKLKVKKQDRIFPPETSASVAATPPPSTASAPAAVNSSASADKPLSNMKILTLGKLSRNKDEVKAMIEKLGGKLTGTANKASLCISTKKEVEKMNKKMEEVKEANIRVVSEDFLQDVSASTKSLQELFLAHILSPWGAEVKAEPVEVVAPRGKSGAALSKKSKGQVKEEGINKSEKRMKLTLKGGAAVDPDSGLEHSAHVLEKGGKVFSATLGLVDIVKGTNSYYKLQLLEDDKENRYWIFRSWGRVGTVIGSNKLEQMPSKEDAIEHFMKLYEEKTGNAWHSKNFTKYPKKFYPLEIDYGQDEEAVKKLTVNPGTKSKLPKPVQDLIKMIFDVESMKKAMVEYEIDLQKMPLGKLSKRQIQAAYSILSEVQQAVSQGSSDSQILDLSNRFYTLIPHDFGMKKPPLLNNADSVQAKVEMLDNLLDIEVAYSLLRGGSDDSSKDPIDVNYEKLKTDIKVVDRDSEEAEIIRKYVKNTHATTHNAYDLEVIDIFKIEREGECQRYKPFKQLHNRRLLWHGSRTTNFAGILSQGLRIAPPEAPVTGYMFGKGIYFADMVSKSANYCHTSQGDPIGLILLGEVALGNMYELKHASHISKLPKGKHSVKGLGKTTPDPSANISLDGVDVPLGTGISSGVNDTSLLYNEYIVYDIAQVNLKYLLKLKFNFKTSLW
UniProt Q7Z3E1, 456-657 limits assumed: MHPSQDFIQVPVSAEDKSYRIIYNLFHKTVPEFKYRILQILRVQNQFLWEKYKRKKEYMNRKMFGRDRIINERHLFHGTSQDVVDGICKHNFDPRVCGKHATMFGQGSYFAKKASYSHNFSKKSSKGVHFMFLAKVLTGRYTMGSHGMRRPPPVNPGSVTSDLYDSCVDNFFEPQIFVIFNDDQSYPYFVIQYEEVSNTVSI

Tests used:
PARP1 = PARP1 (Homo sapiens, UniProt P09874); assay: PARP1 biochemical DELFIA assay (auto-PARylation); settings: read-out: PARP1 activity
[1] = molecular target: PARP7 (amino acids 456-657) (Homo sapiens, UniProt Q7Z3E1); assay: PARP7 biochemical DELFIA assay (auto-MARylation); settings: read-out: PARP7 activity

O=C(CN1CCCC1c1cc(C(F)(F)F)c(=O)[nH]n1)N1CCN(c2nc3cc(F)ccc3o2)CC1 (single isomer, unassigned) [150a] gave an IC50 (PARP1; Table 1A) of 10 to 100 nM and an IC50 ([1]; Table 1A) of less than 10 nM.

For O=C(CCN1CCC(c2cc(C(F)(F)F)c(=O)[nH]n2)C1)N1CCN(c2ncc(C(F)(F)F)cn2)CC1 (single isomer, unassigned) [Compound 7a], the IC50 (PARP1; Table 1) was 100 to 1000 nM and the IC50 ([1]; Table 1) was 100 to 1000 nM.

In the case of O=C(CCN1CCN(c2ncc(C(F)(F)F)cn2)CC1)N1CCCC(c2cc(C(F)(F)F)c(=O)[nH]n2)C1 (single isomer, unassigned) [Compound 9a], the IC50 (PARP1; Table 1) is reported as 1000 to 10000 nM and the IC50 ([1]; Table 1) is reported as 1000 to 10000 nM.

Work on N#Cc1ccc(N2CCN(C(=O)CCN3CCCC(c4cc(C(F)(F)F)c(=O)[nH]n4)C3)CC2)nc1 (single isomer, unassigned) [Compound 11b] yielded an IC50 (PARP1; Table 1) of 100 to 1000 nM and an IC50 ([1]; Table 1) of 100 to 1000 nM.

Compound O=C(CCN1CCCC(c2cc(C(F)(F)F)c(=O)[nH]n2)C1)N1CCN(c2ncc(OC(F)(F)F)cn2)CC1 (single isomer, unassigned) [Compound 13a] has an IC50 (PARP1; Table 1) of 100 to 1000 nM and an IC50 ([1]; Table 1) of 100 to 1000 nM.

In the case of O=C(CN1CCCC1c1cc(C(F)(F)F)c(=O)[nH]n1)NC1CCN(c2ncc(C(F)(F)F)cn2)CC1 (single isomer, unassigned) [Compound 33b], the IC50 (PARP1; Table 1A) is reported as greater than 10000 nM and the IC50 ([1]; Table 1A) is reported as 100 to 1000 nM.

CN(C(=O)CN1CCCC1c1cc(C(F)(F)F)c(=O)[nH]n1)C1CCN(c2ncc(C(F)(F)F)cn2)CC1 (single isomer, unassigned) [Compound 34b] gave an IC50 (PARP1; Table 1A) of 100 to 1000 nM and an IC50 ([1]; Table 1A) of 10 to 100 nM.

For N#Cc1cnc(N2CCN(C(=O)CN3CCCC3c3cc(C(F)(F)F)c(=O)[nH]n3)CC2)nc1 (single isomer, unassigned) [Compound 36a], the IC50 (PARP1; Table 1A) was 1000 to 10000 nM and the IC50 ([1]; Table 1A) was 100 to 1000 nM.

In the case of CNC(=O)c1ccc(N2CCN(C(=O)CN3CCCC3c3cc(C(F)(F)F)c(=O)[nH]n3)CC2)cn1 (single isomer, unassigned) [Compound 37b], the IC50 (PARP1; Table 1A) is reported as 10 to 100 nM and the IC50 ([1]; Table 1A) is reported as 100 to 1000 nM.

Compound O=C(CN1CCCC1c1cc(C(F)(F)F)c(=O)[nH]n1)N1CCN(c2cnc(C(F)(F)F)cn2)CC1 (single isomer, unassigned) [Compound 45a] has an IC50 (PARP1; Table 1A) of 1000 to 10000 nM and an IC50 ([1]; Table 1A) of 1000 to 10000 nM.

With CNC(=O)c1cnc(N2CCN(C(=O)CN3CCCC3c3cc(C(F)(F)F)c(=O)[nH]n3)CC2)cn1 (single isomer, unassigned) [Compound 54a] the IC50 (PARP1; Table 1A) was greater than 10000 nM and the IC50 ([1]; Table 1A) was 1000 to 10000 nM.

With CNC(=O)c1ccc(N2CCN(C(=O)CCN3CCC3c3cc(C(F)(F)F)c(=O)[nH]n3)CC2)cn1 (single isomer, unassigned) [Compound 56b] the IC50 (PARP1; Table 1A) was 100 to 1000 nM and the IC50 ([1]; Table 1A) was 1000 to 10000 nM.

With CCc1cc(C2CCCN2CC(=O)N2CCN(c3ncc(C(F)(F)F)cn3)CC2)c[nH]c1=O (single isomer, unassigned) [Compound 57b] the IC50 (PARP1; Table 1A) was 100 to 1000 nM and the IC50 ([1]; Table 1A) was less than 10 nM.

In the case of O=C(CN1CCN(c2ncc(C(F)(F)F)cn2)CC1)N1CCCC1c1c[nH]c(=O)c(C(F)(F)F)c1 (single isomer, unassigned) [Compound 63a], the IC50 (PARP1; Table 1A) is reported as greater than 10000 nM and the IC50 ([1]; Table 1A) is reported as 1000 to 10000 nM.

For O=C(CN1CCCC1c1cc(C(F)(F)F)c(=O)[nH]n1)N1CCC(c2ncc(C(F)(F)F)cn2)CC1 (single isomer, unassigned) [Compound 70a], the IC50 (PARP1; Table 1A) was greater than 10000 nM and the IC50 ([1]; Table 1A) was 1000 to 10000 nM.

N#Cc1ccc(N2CCN(C(=O)CN3CCCC3c3cc(C(F)(F)F)c(=O)[nH]n3)CC2)cc1 (single isomer, unassigned) [Compound 71b] was tested, and the IC50 (PARP1; Table 1A) was 1000 to 10000 nM and the IC50 ([1]; Table 1A) was 1000 to 10000 nM.

O=C(CN1CCCC1c1cc(C(F)(F)F)c(=O)[nH]n1)N1CCN(c2ncc(OC(F)(F)F)cn2)CC1 (single isomer, unassigned) [Compound 72b] showed an IC50 (PARP1; Table 1A) of 100 to 1000 nM and an IC50 ([1]; Table 1A) of 10 to 100 nM.

Work on CNC(=O)c1ccc(N2CCN(C(=O)CCN3CCCC3c3c[nH]c(=O)c(C(F)(F)F)c3)CC2)cn1 (single isomer, unassigned) [Compound 73b] yielded an IC50 (PARP1; Table 1A) of 100 to 1000 nM and an IC50 ([1]; Table 1A) of 1000 to 10000 nM.

For O=C(CN1CCCC1c1cc(C(F)(F)F)c(=O)[nH]n1)N1CCN(c2ccc(C3CC3)cn2)CC1 (single isomer, unassigned) [Compound 79a], the IC50 (PARP1; Table 1A) was 1000 to 10000 nM and the IC50 ([1]; Table 1A) was 1000 to 10000 nM.

O=C(CN1CCCC1c1cc(C(F)(F)F)c(=O)[nH]n1)N1CCN(c2cc(Cl)c(F)cn2)CC1 (single isomer, unassigned) [Compound 80b] showed an IC50 (PARP1; Table 1A) of 1000 to 10000 nM and an IC50 ([1]; Table 1A) of 100 to 1000 nM.

With O=C(CN1CCCC1c1cc(C(F)(F)F)c(=O)[nH]n1)N1CCN(c2ccc(OC(F)(F)F)cn2)CC1 (single isomer, unassigned) [Compound 81b] the IC50 (PARP1; Table 1A) was 1000 to 10000 nM and the IC50 ([1]; Table 1A) was 100 to 1000 nM.

CNC(=O)c1ccc(N2CCN(C(=O)CN3CCOCC3c3cc(C(F)(F)F)c(=O)[nH]n3)CC2)cn1 (single isomer, unassigned) [Compound 90b] showed an IC50 (PARP1; Table 1A) of 1000 to 10000 nM and an IC50 ([1]; Table 1A) greater than 10000 nM.

Work on O=C(CN1CCCC1c1cc(C(F)(F)F)c(=O)[nH]n1)N1CCN(c2nc3ccc(F)cc3o2)CC1 (single isomer, unassigned) [Compound 95b] yielded an IC50 (PARP1; Table 1A) of less than 10 nM and an IC50 ([1]; Table 1A) of less than 10 nM.

O=C(CN1CCCC1c1cc(C(F)(F)F)c(=O)[nH]n1)N1CC2(CCN(c3ncc(C(F)(F)F)cn3)CC2)C1 (single isomer, unassigned) [Compound 110b] was tested, and the IC50 (PARP1; Table 1A) was 100 to 1000 nM and the IC50 ([1]; Table 1A) was 1000 to 10000 nM.

Work on N#Cc1cc(C2CCCN2CC(=O)N2CCN(c3nc4ccc(F)cc4o3)CC2)n[nH]c1=O (single isomer, unassigned) [Compound 111a] yielded an IC50 (PARP1; Table 1A) greater than 10000 nM and an IC50 ([1]; Table 1A) of 1000 to 10000 nM.

O=C(CN1CCCC1c1cc(C(F)(F)F)c(=O)[nH]n1)N1CCN(c2ncc(F)cc2Cl)CC1 (single isomer, unassigned) [Compound 116b] showed an IC50 (PARP1; Table 1A) of 100 to 1000 nM and an IC50 ([1]; Table 1A) of 10 to 100 nM.

O=C(CN1CCCC1c1cc(C(F)(F)F)c(=O)[nH]n1)N1CCN(c2nc3ccccn3n2)CC1 (single isomer, unassigned) [Compound 117a] showed an IC50 (PARP1; Table 1A) of 1000 to 10000 nM and an IC50 ([1]; Table 1A) of 100 to 1000 nM.

With Cn1c(N2CCN(C(=O)CN3CCCC3c3cc(C(F)(F)F)c(=O)[nH]n3)CC2)nc2ccc(F)cc21 (single isomer, unassigned) [Compound 119b] the IC50 (PARP1; Table 1A) was 100 to 1000 nM and the IC50 ([1]; Table 1A) was less than 10 nM.

In the case of N#Cc1cnc(N2CCN(C(=O)CN3CCCC3c3cc(C(F)(F)F)c(=O)[nH]n3)CC2)c(C(F)(F)F)c1 (single isomer, unassigned) [Compound 124b], the IC50 (PARP1; Table 1A) is reported as 10 to 100 nM and the IC50 ([1]; Table 1A) is reported as 10 to 100 nM.

CN(c1ncc(C(F)(F)F)cn1)C1CN(C(=O)CN2CCCC2c2cc(C(F)(F)F)c(=O)[nH]n2)C1 (single isomer, unassigned) [Compound 127b] was tested, and the IC50 (PARP1; Table 1A) was 10 to 100 nM and the IC50 ([1]; Table 1A) was 100 to 1000 nM.

For N#Cc1cc(Cl)cnc1N1CCN(C(=O)CN2CCCC2c2cc(C(F)(F)F)c(=O)[nH]n2)CC1 (single isomer, unassigned) [Compound 144a], the IC50 (PARP1; Table 1A) was 1000 to 10000 nM and the IC50 ([1]; Table 1A) was 1000 to 10000 nM.

With N#Cc1ccc2nc(N3CCN(C(=O)CN4CCCC4c4cc(C#N)c(=O)[nH]n4)CC3)oc2c1 (single isomer, unassigned) [Compound 145b] the IC50 (PARP1; Table 1A) was 10 to 100 nM and the IC50 ([1]; Table 1A) was less than 10 nM.

Compound N#Cc1cc(F)cnc1N1CCN(C(=O)CN2CCCC2c2cc(C(F)(F)F)c(=O)[nH]n2)CC1 (single isomer, unassigned) [Compound 146a] has an IC50 (PARP1; Table 1A) greater than 10000 nM and an IC50 ([1]; Table 1A) of 1000 to 10000 nM.
